Measured values reported in US7271174B2, “Metabolites of tricyclic amides useful for inhibition of G-protein function and methods of treatment of proliferative diseases” (Schering Corporation, priority 2003, dated 2007).

Target: purified human farnesyl protein transferase (Homo sapiens, UniProt P49354+P49356)
Test: (H-Ras) Farnesyl Transferase Inhibition assay
Format: biochemical
Conditions: transfer of [3H] farnesyl from [3H] farnesyl pyrophosphate to biotin-CVLS peptide; 37° C., 60 minutes; SPA beads
Description: Assay Conditions for (H-Ras) FPT
FPT activity was determined by measuring the transfer of [^3H] farnesyl from [^3H] farnesyl pyrophosphate to a biotinylated peptide derived from the C-terminus of H-Ras (biotin-CVLS). […] The reaction mixture was incubated in a Vortemp shaking incubator at 37° C., 45 RPM for 60 minutes and stopped with 150 μL of 0.25 M EDTA containing 0.5% BSA and 1.3 mg/ml Streptavidin SPA beads. […] Percent inhibition was calculated relative to the vehicle control.

IC50: 2.4 nM
Structure (SMILES): NC(=O)N1CCC(CC(=O)N2CCC([C@H]3c4ncc(Br)cc4CCc4cc(Cl)cc(Br)c43)CC2)CC1 [Compound A (Control), reference compound]
